Among the data in PubChem BioAssay AID686996 (Broad Institute, 2013) are inhibition values, retold here.

Amino acid sequences for entries named in this document (tags omitted). Residues count along the entry.
UniProt P55212, 24-179 limits assumed: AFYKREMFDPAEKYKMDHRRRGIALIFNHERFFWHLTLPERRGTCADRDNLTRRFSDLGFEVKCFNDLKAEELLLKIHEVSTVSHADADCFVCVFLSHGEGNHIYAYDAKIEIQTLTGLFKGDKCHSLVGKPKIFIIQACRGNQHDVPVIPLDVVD
UniProt P55212, 194-293 limits assumed: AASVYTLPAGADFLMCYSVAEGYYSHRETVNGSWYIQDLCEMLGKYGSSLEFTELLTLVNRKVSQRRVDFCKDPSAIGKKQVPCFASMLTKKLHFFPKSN

Only a part is listed here, and it is no random draw. Calls of active or inactive are those of the source.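 How the source made its calls: active means mean inhibition across replicates at least about 35%, with every replicate also reaching that limit (limit read from the data); inconclusive means only one of the two criteria met; inactive means neither criterion met.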

The assay addresses Caspase-6 (Homo sapiens) (UniProt P55212). Nature of the assay: human caspase-6 inhibitors, primary screen, biochemical, VEID-R110 fluorescence, single point, set 2 (AID 686996).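 Further: 0% = median of neutral control wells and 100% = no fluorescence left.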 As to conditions: purified caspase-6, Z-VEID-R110 cleavage fluorescence; at 12.5 µM; hits give high values.
As for `CCC(=O)N(c1ccccc1)C1(COC)CCN(CCn2nnn(CC)c2=O)CC1`, the inhibition was inactive: -1.58%. Regarding `CCC(=O)N(c1ccccc1)C1(COC)CCN(CCc2cccs2)CC1`, the inhibition is inactive: -3.73%.
